The values that follow are results of earlier work, collected in US20240174727A1, “LONG-ACTING NATRIURETIC PEPTIDES AND USES THEREOF” (Eli Lilly and Company, priority 2022, published 2024).

The conditions of this series: cited from earlier work.

For Urodilatin, the in vivo half-life result was “about 6 min”.
